## Yeast mating assay 1: variants of the scFv Ab-14

All variants were tested on one target, the spike HR2 peptide PDVDLGDISGINAS (SARS-CoV-2).

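The starting antibody came from a phage panning campaign against this peptide. In library AAYL50, one, two or three CDR residues were substituted; doubles and triples were drawn at random. In AlphaSeq, yeast of one mating type display the scFv and yeast of the other type display the target. After mating in shaken culture at 30 °C for 16 h, diploids were selected and their barcode pairs sequenced. The ratio of observed to expected reads was calibrated, replicate by replicate, on BCL2-family standards whose Kd was known from biolayer interferometry. Each pool was mated in three replicate cultures.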

The variants keep the heavy chain, the linker and the frameworks of Ab-14 (scFv order VH, a 15-residue (Gly4Ser)3 linker, VL).
VH: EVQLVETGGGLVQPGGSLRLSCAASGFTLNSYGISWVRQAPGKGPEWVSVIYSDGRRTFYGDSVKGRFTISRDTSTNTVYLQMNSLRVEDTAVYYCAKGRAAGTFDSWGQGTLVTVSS
VL: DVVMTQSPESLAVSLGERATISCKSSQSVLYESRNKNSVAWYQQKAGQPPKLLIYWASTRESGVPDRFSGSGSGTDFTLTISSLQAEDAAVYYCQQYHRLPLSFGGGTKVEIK

The parent's light chain CDRs are KSSQSVLYESRNKNSVA, WASTRES, QQYHRLPLS; each variant's own CDRs replace them letter for letter.
Scale: log10 of Kd in nM, estimated from mating counts; low values are strong binders.
Replicates are averaged; those with no signal do not enter the mean.
A pair that was not seen in that replicate is written "ND"; this usually means weak binding, but a binder can also be missed.
Entries are sorted by rising average, undetected variants last.
For reference, the parent read 0.65 as the reference entry and 1.68 as a member of this library.
Empty control strains, which show no peptide, gave a signal in 18% of pairings with library AAYL50; the median was 4.19 and 95% of these signals were weaker than 2.99. No background was subtracted.

{"CDR-L1": "KSSNSVRYESRNKNSVA", "CDR-L2": "SASTRES", "CDR-L3": "QQYHRLPLS", "log10 Kd, replicates": "0.51 / 0.73 / 0.65", "mean, log10 nM": "0.63"}
{"CDR-L1": "KSSQSVLYESRNKNSVA", "CDR-L2": "YASTRES", "CDR-L3": "QQYHILPLS", "log10 Kd, replicates": "1.00 / 0.95 / 1.07", "mean, log10 nM": "1.01"}
{"CDR-L1": "KSSQSVDYESRHKNSVA", "CDR-L2": "WASTRES", "CDR-L3": "QQYHRLPLS", "log10 Kd, replicates": "1.76 / 1.76 / 1.78", "mean, log10 nM": "1.77"}
{"CDR-L1": "KSSQSVLYESRRKNSVA", "CDR-L2": "WASTRES", "CDR-L3": "QQYMALPLS", "log10 Kd, replicates": "2.27 / 2.13 / 2.25", "mean, log10 nM": "2.22"}
{"CDR-L1": "KSSQSVLYIQRNKSSVA", "CDR-L2": "WASTRES", "CDR-L3": "QQYHRLPLS", "log10 Kd, replicates": "3.34 / 3.09 / 2.90", "mean, log10 nM": "3.11"}
{"CDR-L1": "KSSQSVLYEQRNKNSVA", "CDR-L2": "WDSTRES", "CDR-L3": "QQYHRLPLQ", "log10 Kd, replicates": "ND / 2.95 / 3.82", "mean, log10 nM": "3.38"}
{"CDR-L1": "KSSQSVLYGSRNKTSVI", "CDR-L2": "WASTRES", "CDR-L3": "QQYHRLPLS", "log10 Kd, replicates": "ND / ND / 3.64", "mean, log10 nM": "3.64"}
{"CDR-L1": "KCSQSVTYESRNKNSVA", "CDR-L2": "WASTRES", "CDR-L3": "QRYHRLPLS", "log10 Kd, replicates": "3.83 / ND / ND", "mean, log10 nM": "3.83"}
{"CDR-L1": "KSSQSVLYDSRNKNMVA", "CDR-L2": "WASARES", "CDR-L3": "QQYHRLPLS", "log10 Kd, replicates": "5.40 / ND / 3.15", "mean, log10 nM": "4.27"}
{"CDR-L1": "GPSQSVLYESRNKNSVA", "CDR-L2": "WASPRES", "CDR-L3": "QQYHRLPLS", "log10 Kd, replicates": "ND / ND / 4.34", "mean, log10 nM": "4.34"}
{"CDR-L1": "KSSQSVLYESRNKNSVS", "CDR-L2": "WASTRQS", "CDR-L3": "QQYHRLPLS", "log10 Kd, replicates": "3.87 / ND / 5.21", "mean, log10 nM": "4.54"}
{"CDR-L1": "KSSQSVLCESRNKNSMI", "CDR-L2": "WASTRES", "CDR-L3": "QQYHRLPLS", "log10 Kd, replicates": "5.20 / 4.19 / ND", "mean, log10 nM": "4.69"}
{"CDR-L1": "KSSQSVLYESRNKNSTA", "CDR-L2": "WASTRES", "CDR-L3": "QQYHHAPLS", "log10 Kd, replicates": "ND / 4.51 / 4.94", "mean, log10 nM": "4.73"}
{"CDR-L1": "KSSQSVLYESRTKNSVA", "CDR-L2": "WASSRES", "CDR-L3": "AQYHRLPLS", "log10 Kd, replicates": "ND / ND / 4.77", "mean, log10 nM": "4.77"}
{"CDR-L1": "KSSDSVLYESRNKNDVA", "CDR-L2": "WASTFES", "CDR-L3": "QQYHRLPLS", "log10 Kd, replicates": "ND / ND / ND", "mean, log10 nM": "ND"}
{"CDR-L1": "KSSQSVLAESRNKNSVA", "CDR-L2": "WASTRTS", "CDR-L3": "PQYHRLPLS", "log10 Kd, replicates": "ND / ND / ND", "mean, log10 nM": "ND"}
{"CDR-L1": "KSSQSVLYMSRNKNSVA", "CDR-L2": "WYSTRES", "CDR-L3": "QQYHRLPLS", "log10 Kd, replicates": "ND / ND / ND", "mean, log10 nM": "ND"}
{"CDR-L1": "KSSQSVLYESRSKNSVC", "CDR-L2": "WFSTRES", "CDR-L3": "QQYHRLPLS", "log10 Kd, replicates": "ND / ND / ND", "mean, log10 nM": "ND"}
{"CDR-L1": "KSSRSVLYESRNKNSVA", "CDR-L2": "WASTRES", "CDR-L3": "ICYHRLPLS", "log10 Kd, replicates": "ND / ND / ND", "mean, log10 nM": "ND"}
{"CDR-L1": "KSSQSVLYESRNHNSVA", "CDR-L2": "WASTRIS", "CDR-L3": "QVYHRLPLS", "log10 Kd, replicates": "ND / ND / ND", "mean, log10 nM": "ND"}

A selection of 3 entries from above:

{"CDR-L1": "KSSQSVLAESRNKNSVA", "CDR-L2": "WASTRTS", "CDR-L3": "PQYHRLPLS", "log10 Kd, replicates": "ND / ND / ND", "mean, log10 nM": "ND"}
{"CDR-L1": "KSSQSVLYESRNKNSVS", "CDR-L2": "WASTRQS", "CDR-L3": "QQYHRLPLS", "log10 Kd, replicates": "3.87 / ND / 5.21", "mean, log10 nM": "4.54"}
{"CDR-L1": "KSSQSVDYESRHKNSVA", "CDR-L2": "WASTRES", "CDR-L3": "QQYHRLPLS", "log10 Kd, replicates": "1.76 / 1.76 / 1.78", "mean, log10 nM": "1.77"}

Data: MIT Lincoln Laboratory AlphaSeq set, Engelhart et al. 2022, doi:10.1038/s41597-022-01779-4, as distributed in FLAb.